Screening results deposited in PubChem by National Center for Advancing Translational Sciences (NCATS).
Only some compounds are listed: those with a hit (about 3.7% of all), similar ones and a draw of the others.
miR-21 FLuc – miR-21 reporter, rising signal. HeLa miR-21 FLuc reporter, luciferase, 48 h. Potency, µM (titrated, usually from 38.3 µM). 340,000 tested, under 10 active. AID 2288; active = well fitted rising curve with a large enough effect; inconclusive = small, poorly fitted or top-dose-only effect; inactive = no such curve, though single readings can be large or run the other way;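 also: miR-21 action dims this reporter so a rising signal means less miR-21 action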
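Luminescence from a firefly luciferase reporter carrying a miR-21 binding site downstream, stably expressed under a CMV promoter in HeLa cells that make miR-21 endogenously, reports miRNA modulation after 48 h compound exposure up to approximately 40uM final.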
A549 tox – kills or reduces viability of A549 cells in Nrf2 counter-screen. Potency, µM (series often up to 46 µM), actives largely listed as inhibitors. actives 0.16% (n = 390,000). A549 ARE-Fluc cells, CellTiter-Fluor viability, 18-24 h
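A549 ARE_Fluc cells in 5% FBS OPTI-MEM were exposed to compounds in concentration-response for 18-24 h at 37 deg C. Viability was read by CellTiter-Fluor fluorescence (Ex 405/Em 525) after 30 min, before the luciferase read.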
ClpP mod – qHTS Assay for Activators of ClpP | ATP-dependent Clp protease proteolytic subunit (Bacillus subtilis (strain 168)), P80244 | purified B. subtilis ClpP, FRET peptide cleavage, 20 min | Potency, µM (series often up to 57.5 µM) | actives 1.9% (n = 340,000) | AID 651965, 2013; active = well fitted falling curve with a large enough effect; inconclusive = small, poorly fitted or top-dose-only effect; inactive = no such curve, though single readings can be large or run the other way; note: the source files actives as falling curves though it sought activators and does not explain the sign; nearly all actives have a fitted effect of over 65% in size
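ClpP 10 microg/mL final, pH 8 Tris/KCl buffer with BSA, glycerol, Tween-20; compound pinned in; FRET-FV substrate; RT 20 min; Ex320/Em430; ΔFRET vs ADEP 5.8 microM, DMSO, no enzyme.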
TCR act – T cell receptor activation; primary human leukocytes, anti-CD3, IL-2 HTRF, 48 h; Potency, µM (doses to about 9.22 µM), hits mostly activators; 330,000 tested, under 10 active
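TCR engagement came from a-CD3 beads alone, with compounds added to primary human leukocytes for 48 hr. Secreted IL-2 bridged europium cryptate- and d2-labelled anti-IL-2 antibodies, giving FRET emission at 665nm after 320nm excitation.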
Nrf2 ARE act – activators of Nrf2 (ARE) signaling; AREc32 ARE-luciferase reporter (MCF7-derived line), luminescence, 24 h; Potency, µM (series often up to 46.1 µM), most hits filed as activators; actives 0.31% (n = 410,000); AID 624171; note: nearly all actives have a fitted effect of over 65% in size
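Quantitative high-throughput format: AREc32 reporter cells, 1000 per well, received compound by pin transfer and were incubated 24 hr at 37 deg C, 5% CO2, before Steady-Glo luminescence detection.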
Nrf2 block – Nrf2 pathway inhibition. A549 ARE-Fluc reporter, luciferase luminescence, 18-24 h. Potency, µM (top dose mostly 46 µM), most hits filed as inhibitors. actives 2.1% (n = 360,000); note: nearly all actives have a fitted effect of over 60% in size
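Concentration-response testing used A549 ARE_Fluc cells at 5000 cells/well. Following an 18-24 h compound incubation, viability was read by fluorescence (Ex 405/Em 525) and luciferase output by luminescence.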
Of the large screens only hits and unclear results are named; the others gave an inactive call. Unless noted, calls come from the whole dose curve; as a rule, active = well fitted curve in the direction sought with a large enough effect; inconclusive = small, poorly fitted or top-dose-only effect, or another doubt; inactive = no such curve, though single readings can be large; an effect the other way counts as inactive or inconclusive.

COC(=O)c1c(-c2ccc(C)cc2)csc1NC(=O)Cc1ccc(OC)c(OC)c1	Nrf2 block 18.4µM
COc1ccccc1CC(=O)Nc1nc(-c2ccc(F)c(F)c2)cs1	Nrf2 block 23.1µM (no result: ClpP mod)
Cc1ccc(-n2ncc(-c3nn[nH]n3)c2N)cc1	none (no result: ClpP mod)
CN1CCCc2cc(/C=C/c3ccnc4ccccc34)ccc21	none (no result: miR-21 FLuc, A549 tox, TCR act, Nrf2 ARE act, Nrf2 block)
COc1ccc(/C=C(/NC(=O)c2ccco2)C(=O)NCc2ccco2)cc1OC	none
O=C(Cc1ccccc1F)Nc1nc(-c2ccc(F)cc2)cs1	none (no result: ClpP mod)
COc1ccc(-c2csc(NC(=O)CS(=O)(=O)c3ccccc3)n2)cc1OC	none (no result: miR-21 FLuc, A549 tox, TCR act, Nrf2 block)
COc1ccc(-c2csc(NC(=O)Cc3ccccc3F)n2)cc1OC	A549 tox inconclusive, Nrf2 block 20.6µM (no result: ClpP mod)
COC(=O)c1ccccc1NC(=O)C1CC=CCC1C(=O)O (configuration not stated)	ClpP mod 22.4µM
COc1ccc(CC(=O)Nc2nc(-c3ccc(OC)c(OC)c3)cs2)cc1OC	A549 tox inconclusive, Nrf2 block 14.6µM (no result: ClpP mod)
COc1cccc(S(=O)(=O)N2CCN(S(=O)(=O)c3ccc4c(c3)OCCO4)CC2)c1	none (no result: miR-21 FLuc, ClpP mod, TCR act, Nrf2 ARE act)
Nc1c(C(=O)Nc2ccc(Br)cc2)sc2nc(-c3ccco3)ccc12	A549 tox inconclusive, Nrf2 ARE act inconclusive, Nrf2 block 13µM
Cc1ccc(NC(=O)c2sc3nc4c(c(-c5ccco5)c3c2N)CCC4)cc1	Nrf2 block 18.4µM
CCn1ccc2cc(S(=O)(=O)N3CCCN(C(=O)Nc4cc(Cl)ccc4C)CC3)ccc21	none (no result: TCR act, Nrf2 block)
CC(=NNc1nc2ccccc2s1)c1ncccn1	A549 tox inconclusive, Nrf2 ARE act 11.2µM, Nrf2 block inconclusive (no result: miR-21 FLuc)
O=C1C(SC(F)(F)C(F)F)=C(C(F)(F)F)OC2C3C=CC(C3)C12 (configuration not stated)	ClpP mod 15.8µM
O=C1c2ccccc2C(=O)N1c1cccc2ccncc12	none (no result: miR-21 FLuc, ClpP mod, TCR act, Nrf2 ARE act)
CCc1cccc(C)c1NC(=O)CSc1nnc(-c2cc3cc(Br)ccc3o2)n1CC	A549 tox inconclusive, ClpP mod inconclusive, Nrf2 block 16.4µM
O=C(C[C@@H]1CC[C@H](NC(=O)Cc2ccccn2)[C@@H](CO)O1)NCCc1ccccc1	none (no result: miR-21 FLuc, A549 tox, TCR act, Nrf2 ARE act, Nrf2 block)
Fc1ccc(CNc2nc(-c3ccc(Cl)cc3)cc(C(F)(F)F)n2)cc1	none (no result: TCR act)
Fc1ccc(-c2cc(C(F)(F)F)nc(NCc3cccs3)n2)cc1	ClpP mod 31.6µM
Fc1ccc(-c2cc(C(F)(F)F)nc(NCc3ccccc3)n2)cc1	A549 tox inconclusive, ClpP mod 22.4µM (no result: TCR act)
Fc1ccc(CNc2nc(-c3ccco3)cc(C(F)(F)F)n2)cc1	ClpP mod 25.1µM, Nrf2 block inconclusive
O=[N+]([O-])c1ccc(-c2ccc(S(=O)(=O)NCCN3CCCC3)cc2)cc1	Nrf2 block 16.4µM (no result: ClpP mod)
Nc1ncc(Br)cc1S(=O)(=O)NCCC(=O)N1CCN(c2ncccn2)CC1	Nrf2 block 18.4µM (no result: TCR act)
COc1ccc(C(=O)N2CCCC(C)(C(=O)NS(=O)(=O)C3CC3)C2)c(OC)c1 (configuration not stated)	none (no result: miR-21 FLuc, A549 tox, TCR act, Nrf2 block)
CCOCCCn1c(SCC(=O)Nc2oc(C)c3c(C)n[nH]c(=O)c23)nnc1-c1ccncc1	none (no result: miR-21 FLuc, ClpP mod)
Cc1n[nH]c(=O)c2c(NC(=O)CSc3nnc(-c4ccncc4)n3C)oc(C)c12	ClpP mod 31.6µM
Cc1c(C(=S)Nc2ccccc2)cnn1-c1ccccc1	Nrf2 block inconclusive
Cc1c(C(=S)Nc2ccccc2)cnn1-c1ccc([N+](=O)[O-])cc1	Nrf2 block 23.1µM
CCOC(=O)/C(C#N)=C1\Nc2ccccc2N=C1N(CC(C)C)CC(C)C	none
CCOC(=O)/C(C#N)=C1/C=C(C)NC(c2ccccc2O)=N1	Nrf2 block 13µM (no result: TCR act)
CCn1c(=NC(=O)c2ccc(S(=O)(=O)N3CCOCC3)cc2)sc2cccc(OC)c21	ClpP mod 31.6µM, Nrf2 block inconclusive
CCn1c(=NC(=O)CS(=O)(=O)c2ccc(F)cc2)sc2cccc(OC)c21	ClpP mod inconclusive, Nrf2 block 20.6µM (no result: miR-21 FLuc)
COCCn1c(=NC(=O)c2ccc(S(=O)(=O)N3CCOCC3)cc2)sc2cc(S(N)(=O)=O)ccc21	none
COc1cc(Cl)c(C)cc1NC(=O)C1CCN(c2nc3ccccc3n3cccc23)CC1	none (no result: TCR act)
O=C(NCC1CCCO1)c1ccccc1NS(=O)(=O)c1ccc(Br)s1 (configuration not stated)	none (no result: miR-21 FLuc, ClpP mod)
Cc1ccccc1C(=O)N1CC(=O)Nc2ccc(F)cc2C1c1ccc(F)cc1 (configuration not stated)	ClpP mod 31.6µM
O=C1CN(C(=O)c2ccccc2F)C(c2ccccc2)c2cc(F)ccc2N1 (configuration not stated)	none
Cc1ccccc1NS(=O)(=O)c1ccc(OCC(=O)NCc2ccco2)cc1	none (no result: Nrf2 block)
CCOc1ccc(S(=O)(=O)Nc2ccccc2C(=O)NCc2ccco2)cc1	ClpP mod 25.1µM
CS(=O)(=O)Nc1ccccc1C(=O)NCc1ccco1	ClpP mod 28.2µM
Cc1ccc(CNC(=O)c2ccccc2NS(C)(=O)=O)cc1	ClpP mod 28.2µM (no result: Nrf2 block)
Cc1ccc(CNC(=O)c2ccccc2NS(=O)(=O)c2ccc(Cl)nc2)cc1	Nrf2 block inconclusive
CC(NC(=O)c1ccc(NS(C)(=O)=O)cc1)c1ccccc1 (configuration not stated)	Nrf2 block inconclusive
CC(C)(C)C(=O)Nc1ccccc1C(=O)NCc1ccco1	none
CC(NC(=O)c1ccccc1NS(C)(=O)=O)c1ccccc1 (configuration not stated)	ClpP mod 15.8µM (no result: Nrf2 block)
O=C(Nc1ccccc1C(=O)NCc1ccco1)c1ccco1	Nrf2 ARE act inconclusive
O=C(Nc1ccccc1C(=O)NCc1ccco1)NC1CCCCC1	ClpP mod 20µM
Cc1ccc(C)c(S(=O)(=O)Nc2ccccc2C(=O)Nc2ccc(S(=O)(=O)Nc3ncccn3)cc2)c1	ClpP mod 25.1µM
Cc1ccc(S(=O)(=O)Nc2ccccc2C(=O)Nc2ccc(S(=O)(=O)Nc3nccc(C)n3)cc2)cc1	ClpP mod 12.6µM
Cc1ccc(C(=O)Nc2ccc(Br)cc2)cc1S(=O)(=O)Nc1ccccn1	ClpP mod 28.2µM
CC(C)COc1ccc(CC(=O)NO)cc1	none (no result: miR-21 FLuc, A549 tox, TCR act, Nrf2 ARE act, Nrf2 block)
COc1ccc(NC(=O)C(=O)NCCc2csc(-c3ccc(Cl)cc3)n2)cc1OC	none (no result: TCR act, Nrf2 block)
COc1ccc(-c2cc3nc(-c4ccccc4)cc(N4CCCC(O)C4)n3n2)cc1 (configuration not stated)	A549 tox inconclusive, Nrf2 block 13µM
